The term efflux ratio denotes the permeability from basolateral to apical divided by that in the opposite direction, in the common usage.

This passage reports efflux ratio results from US20170087120A1, “COMPOSITION FOR IMPROVING BIOAVAILBILITY AND EFFICACY OF TAXANE” (Florida A&M University, priority 2015, published 2017).

Some results are limits rather than exact numbers.

This data set in a line: in vitro. Conditions: human, Caco-2. The source says: In FIG. 1B, Caco-2 is colon carcinoma cells used to evaluate the permeability and efflux of drug in GI track.

As for `CC(=O)O[C@@]12CO[C@@H]1C[C@H](O)[C@@]1(C)C(=O)[C@H](O)C3=C(C)[C@@H](OC(=O)[C@H](O)[C@@H](NC(=O)OC(C)(C)C)c4ccccc4)C[C@@](O)([C@@H](OC(=O)c4ccccc4)[C@H]21)C3(C)C` [DTX, docetaxel, reference compound], the efflux ratio was over 2.
